Amino acid sequences for entries named in this document (tags omitted).
UniProt P04626, whole entry: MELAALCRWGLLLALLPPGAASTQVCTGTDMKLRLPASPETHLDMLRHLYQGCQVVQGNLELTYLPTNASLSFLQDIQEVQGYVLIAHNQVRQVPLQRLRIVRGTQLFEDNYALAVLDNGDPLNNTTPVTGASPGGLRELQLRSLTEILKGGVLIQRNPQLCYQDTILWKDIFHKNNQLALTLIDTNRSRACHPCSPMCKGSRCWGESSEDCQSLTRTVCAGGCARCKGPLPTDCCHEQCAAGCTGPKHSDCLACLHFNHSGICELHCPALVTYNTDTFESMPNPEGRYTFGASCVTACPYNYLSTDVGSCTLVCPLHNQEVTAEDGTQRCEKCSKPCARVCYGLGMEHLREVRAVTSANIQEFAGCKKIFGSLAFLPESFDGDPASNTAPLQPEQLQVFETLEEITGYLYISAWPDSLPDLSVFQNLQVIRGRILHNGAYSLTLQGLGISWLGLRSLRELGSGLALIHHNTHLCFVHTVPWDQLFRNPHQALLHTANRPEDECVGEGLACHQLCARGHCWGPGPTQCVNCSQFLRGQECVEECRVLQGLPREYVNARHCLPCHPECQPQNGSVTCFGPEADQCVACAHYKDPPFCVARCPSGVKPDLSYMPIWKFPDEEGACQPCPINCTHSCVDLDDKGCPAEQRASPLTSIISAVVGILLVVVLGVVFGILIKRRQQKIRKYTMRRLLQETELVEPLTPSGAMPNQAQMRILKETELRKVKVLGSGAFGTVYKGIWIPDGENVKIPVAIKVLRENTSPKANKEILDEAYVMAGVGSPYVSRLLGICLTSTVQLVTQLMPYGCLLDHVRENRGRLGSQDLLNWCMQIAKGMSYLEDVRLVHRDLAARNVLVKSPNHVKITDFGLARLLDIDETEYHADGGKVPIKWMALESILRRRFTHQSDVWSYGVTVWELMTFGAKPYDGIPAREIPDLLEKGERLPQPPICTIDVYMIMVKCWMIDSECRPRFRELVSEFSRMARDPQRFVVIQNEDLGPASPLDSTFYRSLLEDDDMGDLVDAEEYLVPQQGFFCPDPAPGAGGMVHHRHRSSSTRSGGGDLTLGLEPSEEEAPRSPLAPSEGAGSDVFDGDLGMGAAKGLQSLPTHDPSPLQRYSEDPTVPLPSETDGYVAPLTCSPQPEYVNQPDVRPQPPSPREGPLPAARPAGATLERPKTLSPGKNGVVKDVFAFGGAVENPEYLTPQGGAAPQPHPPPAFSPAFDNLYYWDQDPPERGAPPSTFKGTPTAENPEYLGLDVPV
UniProt P00533, whole entry: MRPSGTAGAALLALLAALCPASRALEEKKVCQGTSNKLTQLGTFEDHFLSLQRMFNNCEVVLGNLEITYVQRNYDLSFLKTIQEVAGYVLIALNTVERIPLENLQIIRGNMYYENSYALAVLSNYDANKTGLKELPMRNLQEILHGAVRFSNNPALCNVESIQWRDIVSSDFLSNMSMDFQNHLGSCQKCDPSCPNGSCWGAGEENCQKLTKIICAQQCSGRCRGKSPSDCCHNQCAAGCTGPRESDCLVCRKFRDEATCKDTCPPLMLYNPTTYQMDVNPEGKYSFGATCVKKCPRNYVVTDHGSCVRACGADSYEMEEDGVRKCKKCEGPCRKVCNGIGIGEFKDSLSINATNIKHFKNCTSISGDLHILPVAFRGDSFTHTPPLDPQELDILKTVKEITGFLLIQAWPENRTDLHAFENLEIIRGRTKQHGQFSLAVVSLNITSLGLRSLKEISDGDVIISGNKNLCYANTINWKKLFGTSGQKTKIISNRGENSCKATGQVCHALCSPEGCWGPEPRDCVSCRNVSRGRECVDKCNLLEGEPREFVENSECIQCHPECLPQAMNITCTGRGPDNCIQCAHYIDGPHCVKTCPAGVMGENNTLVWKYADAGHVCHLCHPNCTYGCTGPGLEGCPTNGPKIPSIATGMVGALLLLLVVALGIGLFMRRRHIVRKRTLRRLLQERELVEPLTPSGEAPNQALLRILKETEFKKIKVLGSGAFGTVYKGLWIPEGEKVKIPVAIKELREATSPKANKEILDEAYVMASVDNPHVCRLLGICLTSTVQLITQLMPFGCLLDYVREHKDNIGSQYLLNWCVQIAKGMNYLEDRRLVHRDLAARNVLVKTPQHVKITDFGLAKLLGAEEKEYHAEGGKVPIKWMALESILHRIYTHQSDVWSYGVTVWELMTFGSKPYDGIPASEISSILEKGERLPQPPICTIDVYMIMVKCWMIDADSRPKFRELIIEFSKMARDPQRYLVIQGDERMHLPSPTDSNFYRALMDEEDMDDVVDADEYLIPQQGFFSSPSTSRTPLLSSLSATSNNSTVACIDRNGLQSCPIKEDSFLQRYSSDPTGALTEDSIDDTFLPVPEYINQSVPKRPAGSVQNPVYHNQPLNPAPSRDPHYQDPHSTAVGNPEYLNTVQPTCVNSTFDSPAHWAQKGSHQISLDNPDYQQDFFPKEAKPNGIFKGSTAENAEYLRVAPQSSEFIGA

According to ChEMBL document CHEMBL1139130, “New C-5 substituted pyrrolotriazine dual inhibitors of EGFR and HER2 protein tyrosine kinases” (Bioorg Med Chem Lett, 2007):

Legend:
[1] = molecular target: Receptor tyrosine-protein kinase erbB-2 (Homo sapiens, UniProt P04626); assay: Inhibition of human recombinant cytoplasmic HER2 kinase expressed in Sf9 cells
[2] = molecular target: Epidermal growth factor receptor (Homo sapiens, UniProt P00533)

Row | IC50 [1] [nM] | IC50 [2] [nM] | Structure (SMILES)
1 | 560 | 570 | Fc1cccc(COc2ccc(Nc3ncnn4ccc(COC[C@@H]5CNCCO5)c34)cc2Cl)c1
2 | – | 90 | NCCOCc1ccn2ncnc(Nc3ccc4c(cnn4Cc4cccc(F)c4)c3)c12
